System: TNFα
Assay: Cot Monocyte TNFα Cell Based Assay
Conditions: read-out: EC50 TNF, LPS-stimulated human monocytes

EC50: 11 nM
Structure (SMILES): Cc1nc(F)ccc1C(Nc1cc(Cl)c2ncc(C#N)c(N[C@H](CCC#N)c3ccccc3)c2c1)c1cn(C2CC2)nn1 (stereo partly drawn) [Example 72, 8-chloro-4-(((R)-3-cyano-1-phenyl-propyl)amino)-6-(((1-cyclopropyl-1H-1,2,3-triazol-4-yl)(6-fluoro-2-methylpyridin-3-yl)methyl-d)amino)quinoline-3-carbonitrile]
